# Reference: patent US3963716A, “Novel 1-phthalazone derivative, a process for its preparation and a pharmaceutical composition containing it” (priority 1973, dated 1976)
# Assays:
# in vivo = settings: mouse, oral, mice
# [1] = target: cyclic AMP phosphodiesterase; test: inhibition of cyclic AMP phosphodiesterase, aortic wall media (rabbit); assay type: biochemical; settings: 50% inhibition of cyclic AMP phosphodiesterase; read-out: I50, Aortic Wall, Media (rabbit)
# Method: (§1) The procedure of the experiment was carried out in accordance with the method described in H. Hidaka and M. Shibuya: title "A new assay of cyclic nucleotide phosphodiesterase and its application to humans", Biochemical Medicine, (in press).
# [2] = target: cyclic AMP phosphodiesterase; test: inhibition of cyclic AMP phosphodiesterase, aortic wall intima (rabbit); assay type: biochemical; settings: 50% inhibition of cyclic AMP phosphodiesterase; read-out: I50, Aortic Wall, Intima (rabbit)
# Method: as §1
SMILES,LD50 (in vivo) [mg/kg],IC50 [1] [µM],IC50 [2] [µM]
"CCOC(=O)c1c(C)cc2c(CO)n[nH]c(=O)c2c1C [6,8-dimethyl-7-ethoxycarbonyl-4-hydroxymethyl-1-phthalazone]",4250,–,–
Cn1c(=O)c2[nH]cnc2n(C)c1=O [theophylline],–,155,127
